1 molecule from ChEMBL document CHEMBL1125386, “Small atrial natriuretic peptide analogues: design, synthesis, and structural requirements for guanylate cyclase activation” (J Med Chem, 1992) can be followed below.

This experiment is filed under the species Oryctolagus cuniculus. Kind of experiment: Compound was evaluated for the intrinsic vasorelaxation (i.vr) in a standard tissue bath preparation using rabbit aortic rings precontracted with histamine. The format is functional, Aorta. The method in brief:
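Rabbit aortic rings (4–5 mm) in Krebs-Henseleit buffer, gassed 95:5 O2/CO2, pH 7.4, isometric tension, baseline 2 g held 2 h. Rings contracted with 3 μM histamine, then six cumulative half-log peptide increments over 90 min, range 10⁻⁸ to 10⁻⁴ M. Triplicate determinations.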

`CC[C@H](C)[C@@H]1NC(=O)[C@H](CCCN=C(N)N)NC(=O)[C@H](CC(=O)O)NC(=O)[C@H]([C@@H](C)CC)NC(=O)[C@H](CCCN=C(N)N)NC(=O)CNC(=O)CNC(=O)[C@H](Cc2ccccc2)NC(=O)[C@@H](NC(=O)[C@H](CO)NC(=O)[C@H](CO)NC(=O)[C@H](CCCN=C(N)N)NC(=O)[C@H](CCCN=C(N)N)NC(=O)[C@H](CC(C)C)NC(=O)[C@@H](N)CO)CSSC[C@@H](C(=O)N[C@@H](CC(N)=O)C(=O)N[C@@H](CO)C(=O)N[C@@H](Cc2ccccc2)C(=O)N[C@@H](CCCN=C(N)N)C(=O)N[C@@H](Cc2ccc(O)cc2)C(=O)O)NC(=O)CNC(=O)[C@H](CC(C)C)NC(=O)CNC(=O)[C@H](CO)NC(=O)[C@H](CCC(N)=O)NC(=O)[C@H](C)NC(=O)CNC1=O`: the Intrinsic vasorelaxation is 1 fraction of rANP max.
